Data reported in patent US10639373B2, “Pyrrolobenzodiazepine antibody drug conjugates and methods of use” (priority 2015, dated 2020).

Tests used:
Bjab-luc xenograft = test: Tumor growth inhibition, Bjab-luc xenograft model (FIG. 3); format: in vivo, CB-17 Fox Chase SCID mice; conditions: 0.4 mg/kg, IV once
Method: (§1) The in vivo efficacy of antibody-drug conjugates (ADC) was measured by tumor growth inhibition in mice (Example 7). […] Efficacy of the ADC was correlated with target antigen expression of the tumor cells.
(§2) The efficacy of antibody-drug conjugates were measured in vivo by implanting allografts or xenografts of cancer cells in rodents and treating the tumors with ADC. Variable results are to be expected depending on the cell line, the specificity of antibody binding of the ADC to receptors present on the cancer cells, dosing regimen, and other factors. The in vivo efficacy of the ADC was measured using a transgenic explant mouse model expressing moderate to high levels of a tumor-associated antigen, such as Her2, CD22, and Ly6E. Subjects were treated once with ADC and monitored over 3-6 weeks to measure the time to tumor doubling, log cell kill, and tumor shrinkage. Follow up dose-response and multi-dose experiments were conducted.
(§3) Tumors were established and allowed to grow to 150-200 mm^3 in volume (as measured using calipers) before a single treatment on day 0. Tumor volume was measured using calipers according to the formula: V (mm^3)=0.5A×B^2, where A and B are the long and short diameters, respectively. […] Data collected from each experimental group (10 mice per group) were expressed as mean±SE.

[1] = system: HER2 Fo5 (MMTV-HER2) mammary tumor; test: Tumor growth inhibition, HER2 Fo5 model (FIGS. 6, 8); format: in vivo, CRL nu/nu mice
Method: For example, the in vivo efficacy of an anti-HER2 ADC of the invention can be measured by a high expressing HER2 transgenic explant mouse model (Phillips et al (2008) Cancer Res. 68:9280-90). […] Subjects were treated once with ADC at certain dose levels (mg/kg) and placebo buffer control (Vehicle) and monitored over two weeks or more to measure the time to tumor doubling, log cell kill, and tumor shrinkage.
The Fo5 mouse mammary tumor model was employed to evaluate the in vivo efficacy of antibody-drug conjugates of the invention after single dose intravenous injections, and as described previously (Phillips G D L, Li G M, Dugger D L, et al. Targeting HER2-Positive Breast Cancer with Trastuzumab-DM1, an Antibody-Cytotoxic Drug Conjugate. (2008) Cancer Res. 68:9280-90), incorporated by reference herein. Anti-Her2 ADC were tested with the Fo5 model, a transgenic mouse model in which the human HER2 gene is over-expressed in mammary epithelium under transcriptional regulation of the murine mammary tumor virus promoter (MMTV-HER2) as shown in FIGS. 3 and 5. The HER2 over-expression causes spontaneous development of a mammary tumor. The mammary tumor of one of these founder animals (founder #5 [Fo5]) has been propagated in subsequent generations of FVB mice by serial transplantation of tumor fragments (˜2×2 mm in size). […]

HER2 KPL4 tumor = test: Tumor growth inhibition, HER2 KPL4 tumor model (FIG. 7); format: in vivo, scid beige mice; conditions: FIG. 7, dosed IV once
Method: as §3
Inoculate n=150 mice with HER2 KPL-4 cells at 3 million cells/mouse suspended in HBSS/matrigel, in the thoracic mammary fat pad at a volume of 0.2 ml. When tumors have reached a mean tumor volume of 100-250 mm3, they will be grouped out into 10 groups of 8-10 mice each. A single treatment will be administered intravenously via the tail vein on Day 0. Volume not to exceed 0.3 ml, needle size 28 or 29 gauge.

[2] = Safety/tolerance in CD-1 mice, percent body weight change; format: in vivo; conditions: dosing at days 0, 7, 14; body weight change over 45 days
BJAB cells = test: In vitro potency, cell viability (Table 5, FIG. 1A); format: cell-based
Method: (§4) The in vitro potency of antibody-drug conjugates (ADC) was measured by a cell proliferation assay (Example 6). […] Potency of the ADC was correlated with target antigen expression of the cells. The tested conjugates are capable of binding to the specific antigen expressed on the surface of cells and causing the death of those cells in vitro.
(§5) The CellTiter-Glo® Luminescent Cell Viability Assay is a commercially available (Promega Corp., Madison, Wis.), homogeneous assay method based on the recombinant expression of Coleoptera luciferase (U.S. Pat. Nos. 5,583,024; 5,674,713; 5,700,670). This cell proliferation assay determines the number of viable cells in culture based on quantitation of the ATP present, an indicator of metabolically active cells (Crouch et al (1993) J. Immunol. Meth. 160:81-88; U.S. Pat. No. 6,602,677). […]
(§6) The homogeneous “add-mix-measure” format results in cell lysis and generation of a luminescent signal proportional to the amount of ATP present. […] Viable cells are reflected in relative luminescence units (RLU). […]
(§7) Efficacy of ADC was measured by a cell proliferation assay employing the following protocol ([…] GLO™ Luminescent Cell Viability Assay, Promega Corp. Technical Bulletin TB288; Mendoza et al (2002) Cancer Res. 62:5485-5488). […] The plate was incubated at room temperature for 10 minutes to stabilize the luminescence signal. • 8. […]

WSU-DLCL2 cells = test: In vitro potency, cell viability (Table 5, FIG. 1B); format: cell-based, human
Method: as §4, §5, §6, §7

Jurkat cells = test: In vitro potency, cell viability (Table 5, FIG. 1C); format: cell-based
Method: as §4, §5, §6, §7

[3] = system: CD22-expressing WSU-DLCL2 xenograft; test: Tumor growth inhibition, WSU-DLCL2 xenograft model (FIGS. 4, 9); format: in vivo, CB-17 Fox Chase SCID mice; conditions: FIG. 4, 2 mg/kg, off-target Her2 controls
Method: as §1, §2, §3

Row | Molecule | TGI (Bjab-luc xenograft) | tumor inhibition ([1]; FIG. 6, dosed IV once) | tumor inhibition (HER2 KPL4 tumor) | maximum tolerated dose (MTD) [2] | BJAB IC50 (BJAB cells) | IC50 (BJAB cells) | IC50 (WSU-DLCL2 cells) | WSU-DLCL2 IC50 (WSU-DLCL2 cells) | IC50 (Jurkat cells) | Jurkat IC50 (Jurkat cells) | TGI [3] | tumor inhibition ([1]; FIG. 8, dosed IV once)
1 | ADC-201: Comparator ADC: Thio anti-Her2 hu7C2 LC K149C-(CLD-1); DAR 1.84 (conjugate) heavy: EVQLVQSGAEVKKPGASVKVSCKASGYSFTGYWMNWVRQAPGQGLEWIGMIHPLDAEIRANQKFRDRVTITVDTSTSTAYLELSSLRSEDTAVYYCARGTYDGGFEYWGQGTLVTVSSASTKGPSVFPLAPSSKSTSGGTAALGCLVKDYFPEPVTVSWNSGALTSGVHTFPAVLQSSGLYSLSSVVTVPSSSLGTQTYICNVNHKPSNTKVDKKV[no letters for human IgG1 Fc] light: DIVMTQSPDSLAVSLGERATINCRASQSVSGSRFTYMHWYQQKPGQPPKLLIKYASILESGVPDRFSGSGSGTDFTLTISSLQAEDVAVYYCQHSWEIPPWTFGQGTKVEIKRTVAAPSVFIFPPSDEQLKSGTASVVCLLNNFYPREAKVQWCVDNALQSGNSQESVTEQDSKDSTYSLSSTLTLSKADYEKHKVYACEVTHQGLSSPVTKSFNRGEC | 36% | tumor inhibition and dose-dependent effects | tumor inhibition and dose-dependent effects | 0.075 mg/kg | – | – | – | – | – | – | – | –
2 | ADC-108: Thio Hu-Anti-Her2 hu7C2 LC K149C-(LD-52); DAR 1.99 (conjugate) heavy: EVQLVQSGAEVKKPGASVKVSCKASGYSFTGYWMNWVRQAPGQGLEWIGMIHPLDAEIRANQKFRDRVTITVDTSTSTAYLELSSLRSEDTAVYYCARGTYDGGFEYWGQGTLVTVSSASTKGPSVFPLAPSSKSTSGGTAALGCLVKDYFPEPVTVSWNSGALTSGVHTFPAVLQSSGLYSLSSVVTVPSSSLGTQTYICNVNHKPSNTKVDKKV[no letters for human IgG1 Fc] light: DIVMTQSPDSLAVSLGERATINCRASQSVSGSRFTYMHWYQQKPGQPPKLLIKYASILESGVPDRFSGSGSGTDFTLTISSLQAEDVAVYYCQHSWEIPPWTFGQGTKVEIKRTVAAPSVFIFPPSDEQLKSGTASVVCLLNNFYPREAKVQWCVDNALQSGNSQESVTEQDSKDSTYSLSSTLTLSKADYEKHKVYACEVTHQGLSSPVTKSFNRGEC | – | – | – | 0.2 mg/kg | 1.2687 µg/mL | 8.46 nM | 11.3 nM | 1.68931 µg/mL | 8.96 nM | 1.3426 µg/mL | ~30% | tumor inhibition and dose-dependent effects
